The list shows a part of the results, in another mix than the full data. Results filed as inconclusive are left out. Active and inactive are the calls of the source. Calls follow the shape of the dose curve; as a rule, active = well fitted cell-killing curve with a large enough effect; inconclusive = small, poorly fitted or top-dose-only effect, or effect the other way; inactive = flat fitted curve, though single readings scatter.
How the values were obtained:
Assay in all cases: Primary qHTS to identify gynecologic anti-cancer compounds using libraries of approved drugs and bioactive compounds (AID 1345084); also: nearly all actives have a fitted effect of over 55% in size
C33A = settings: Gynecologic cancer cell panel viability, ATPlite luminescence, 48 h; at 57.5 µM (top of the series)
Outline: (§1)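 Cell viability after 48 h drug treatment, ATPlite luminescence readout; five doses.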

CAOV3 = settings: Gynecologic cancer cell panel viability, ATPlite luminescence, 48 h; at 57.5 µM (top of the series)
Outline: as §1

CASKI = settings: Gynecologic cancer cell panel viability, ATPlite luminescence, 48 h; at 57.5 µM (top of the series)
Outline: as §1

Es-2 = settings: Gynecologic cancer cell panel viability, ATPlite luminescence, 48 h; at 57.5 µM (top of the series)
Outline: as §1

HeLa = settings: Gynecologic cancer cell panel viability, ATPlite luminescence, 48 h; at 57.5 µM (top of the series)
Outline: as §1

Hek293T = settings: Gynecologic cancer cell panel viability, ATPlite luminescence, 48 h, control line for the selectivity index; at 57.5 µM (top of the series)
Outline: as §1

JEG-3 = settings: Gynecologic cancer cell panel viability, ATPlite luminescence, 48 h; at 57.5 µM (top of the series)
Outline: as §1

OV90 = settings: Gynecologic cancer cell panel viability, ATPlite luminescence, 48 h; at 57.5 µM (top of the series)
Outline: as §1

PA-1 = settings: Gynecologic cancer cell panel viability, ATPlite luminescence, 48 h; at 57.5 µM (top of the series)
Outline: as §1

SKOV3 = settings: Gynecologic cancer cell panel viability, ATPlite luminescence, 48 h; at 57.5 µM (top of the series)
Outline: as §1

Measured: activity change, negative = cytotoxicity
% is scaled to controls: 0 for no effect and ±100 for the full control effect.

CC(=O)N1CCc2ccc(N(C(=O)/C=C/c3cccc(C#N)c3)C3CCN(CCC4CCCC4)CC3)cc21
inactive: C33A 9.24% | CAOV3 = 26.2% | CASKI -1.69% | Es-2 = 0.939% | HeLa 13.9% | Hek293T 0.369% | JEG-3 = 0.172% | OV90 = 8.38% | PA-1 = 10.3% | SKOV3 = 0%

CCOC(=O)N1CCC(=O)CC1
inactive: C33A 16.4% | CAOV3 = 2.87% | CASKI 3.41% | Es-2 = -1.69% | HeLa 8.21% | Hek293T 3.9% | JEG-3 = -2.11% | OV90 = -0.241% | PA-1 = 4.91% | SKOV3 = 27%

CCC(=O)N(c1ccccc1)C1CCNCC1
inactive: C33A 6.81% | CAOV3 = -0.265% | CASKI 13.3% | Es-2 = 24.7% | HeLa 7.18% | Hek293T -8.55% | JEG-3 = 12.7% | OV90 = -12.2% | PA-1 = -2.88% | SKOV3 = 1.22%
